Assay results taken from patent US20220338471A1, “HONEY BEE-SAFE ACARICIDAL COMPOUNDS” (Kansas State University Research Foundation, priority 2019, published 2022).

Biological target: T1, varroa mite proctolin receptor (VdProctR) (Varroa destructor, UniProt A0A7T1TE40)
T1 sequence (A0A7T1TE40 1-530): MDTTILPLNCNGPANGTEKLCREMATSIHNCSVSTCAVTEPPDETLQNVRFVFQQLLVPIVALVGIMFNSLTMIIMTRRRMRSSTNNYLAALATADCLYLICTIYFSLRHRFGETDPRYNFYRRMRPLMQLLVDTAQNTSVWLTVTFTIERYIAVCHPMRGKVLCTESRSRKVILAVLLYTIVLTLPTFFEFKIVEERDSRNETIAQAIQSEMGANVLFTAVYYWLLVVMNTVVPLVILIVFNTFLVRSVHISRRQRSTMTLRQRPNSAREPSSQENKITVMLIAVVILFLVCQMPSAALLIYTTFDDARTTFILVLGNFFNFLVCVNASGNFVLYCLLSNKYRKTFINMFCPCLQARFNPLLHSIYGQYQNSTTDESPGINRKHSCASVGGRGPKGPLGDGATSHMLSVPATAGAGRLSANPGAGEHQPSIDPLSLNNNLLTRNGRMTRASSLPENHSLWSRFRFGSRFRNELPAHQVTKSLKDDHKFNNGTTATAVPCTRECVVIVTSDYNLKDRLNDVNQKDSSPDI
Assay: Receptor activity assay: luminescence in cells transiently transfected with varroa mite proctolin receptor
Format: cell-based
Conditions: for EC50: EC50 (nM), varroa mite proctolin receptor; for EC50 / Fold change: first set of experiments; for Fold change: EC50 relative to proctolin (0.22 nM)
Procedure: Receptor activity assay: Cells were transiently transfected with pcDNA3.1+ containing the open reading frame of varroa mite proctolin receptor (VdProctR) or empty vector using TransFr-2020 (Mirus Bio). Approximately thirty hours after transfection, the cells were collected and preincubated with coelenterazine h for the functional assay. The ligands in serial dilutions were loaded into 96-well opaque plates. Cells treated with coelenterazine h were injected into each well on an Orion microplate luminometer (Berthold) luminescent plate reader. The luminescence was measured for 20 seconds immediately after the cell injections. Data analyses were performed to determine the accumulated luminescence value for 20 seconds after extraction of blank-well luminescence. A dose-response curve was generated and the EC50 (50% effective concentration) was calculated in Origin 7 (OriginLab).

SMILES	EC50 [nM]	Fold change	Activity at high concentrations compared with proctolin (at 1 μM and 10 μM)
CC(C)C[C@H](NC(=O)[C@H](Cc1ccc(O)cc1)NC(=O)[C@H](C)N)C(=O)N1CCC[C@H]1C(=O)N[C@H](C(=O)O)[C@@H](C)O [Analog A1, AYLPT]	2970	13509.09	
CC(C)C[C@H](NC(=O)[C@H](C)NC(=O)[C@@H](N)CCCNC(=N)N)C(=O)N1CCC[C@H]1C(=O)N[C@H](C(=O)O)[C@@H](C)O [Analog A2, RALPT]	3190	14486.36	
C[C@H](NC(=O)[C@H](Cc1ccc(O)cc1)NC(=O)[C@@H](N)CCCNC(=N)N)C(=O)N1CCC[C@H]1C(=O)N[C@H](C(=O)O)[C@@H](C)O [Analog A3, RYAPT]	84.3	383.05	
CC(C)C[C@H](NC(=O)[C@H](Cc1ccc(O)cc1)NC(=O)[C@@H](N)CCCNC(=N)N)C(=O)N[C@@H](C)C(=O)N[C@H](C(=O)O)[C@@H](C)O [Analog A4, RYLAT]	3.54	16.09	higher than that of proctolin
CC(C)C[C@H](NC(=O)[C@H](Cc1ccc(O)cc1)NC(=O)[C@@H](N)CCCNC(=N)N)C(=O)N1CCC[C@H]1C(=O)N[C@@H](C)C(=O)O [Analog A5, RYLPA]	47.4	215.64	
